Protein sequences, listed by entry. Tags and fused reporters are not part of them.
UniProt Q9Y233, whole entry, species assumed: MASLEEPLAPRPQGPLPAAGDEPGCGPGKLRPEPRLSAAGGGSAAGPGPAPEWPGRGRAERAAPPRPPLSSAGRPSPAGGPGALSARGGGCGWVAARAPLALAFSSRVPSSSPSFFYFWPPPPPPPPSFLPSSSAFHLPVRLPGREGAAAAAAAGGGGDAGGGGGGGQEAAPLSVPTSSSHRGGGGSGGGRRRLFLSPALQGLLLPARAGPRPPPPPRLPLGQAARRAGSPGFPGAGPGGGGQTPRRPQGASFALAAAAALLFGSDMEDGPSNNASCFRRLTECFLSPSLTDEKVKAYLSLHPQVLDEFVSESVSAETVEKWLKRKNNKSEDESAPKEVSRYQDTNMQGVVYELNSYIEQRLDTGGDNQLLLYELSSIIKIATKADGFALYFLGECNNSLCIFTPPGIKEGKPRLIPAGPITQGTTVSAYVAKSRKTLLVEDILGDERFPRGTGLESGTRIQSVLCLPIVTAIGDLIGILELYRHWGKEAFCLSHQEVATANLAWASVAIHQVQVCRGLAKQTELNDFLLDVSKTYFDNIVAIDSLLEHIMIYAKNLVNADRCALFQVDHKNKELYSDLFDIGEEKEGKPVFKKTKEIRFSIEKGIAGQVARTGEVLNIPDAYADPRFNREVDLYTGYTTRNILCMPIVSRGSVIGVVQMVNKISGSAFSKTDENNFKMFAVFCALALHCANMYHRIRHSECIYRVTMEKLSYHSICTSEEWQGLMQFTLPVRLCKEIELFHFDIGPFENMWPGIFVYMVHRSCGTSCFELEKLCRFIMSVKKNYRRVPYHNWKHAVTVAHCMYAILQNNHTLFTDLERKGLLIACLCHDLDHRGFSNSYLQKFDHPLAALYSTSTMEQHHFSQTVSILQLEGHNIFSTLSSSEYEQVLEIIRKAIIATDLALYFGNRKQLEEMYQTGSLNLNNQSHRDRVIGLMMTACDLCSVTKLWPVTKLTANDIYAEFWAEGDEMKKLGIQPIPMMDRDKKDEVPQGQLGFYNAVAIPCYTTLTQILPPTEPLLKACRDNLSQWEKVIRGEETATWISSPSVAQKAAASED

According to article PMC7504677, “Impact of N-Alkylamino Substituents on Serotonin Receptor (5-HTR) Affinity and Phosphodiesterase 10A (PDE10A) Inhibition of Isoindole-1,3-dione Derivatives” (Molecules, 2020):

Target: PDE10A (Homo sapiens, UniProt Q9Y233)
Test: luminescence PDE inhibition assay (PDElight HTS cAMP phosphodiesterase assay kit)
Assay type: biochemical
Procedure: Test and reference compounds were dissolved in dimethyl sulfoxide (DMSO) at a concentration of 1 mM and further diluted in assay buffer in order to obtain the final concentration of compounds: 10 µM and 3 µM, respectively. All reactions were carried out at 37 °C in white, half-area 96-well plates (Perkin Elmer, Waltham, MA, USA). The inhibition of PDE 10A enzyme was measured using the PDElight HTS cAMP phosphodiesterase assay kit (Lonza) according to the manufacturer’s recommendations. 2.5 U of PDE 10A enzyme was preincubated either with DMSO (vehicle control) or compound for 20 min before incubation with the substrate, cAMP (final concentration 1.25 µM), for 1 h. Then, PDELight AMP Detection Reagent was added. After 10 min incubation, the luminescence was measured in a multifunction plate reader (POLARstar Omega, BMG Labtech, Ortenberg, Germany).

With `COc1ccc(Cc2nccc3cc(OC)c(OC)cc23)cc1OC` [Papaverine, papaverine] the IC50 was 5.755 ± 0.055 µM.
